Yeast mating assay B: variants of the scFv Ab-14

Data: MIT Lincoln Laboratory AlphaSeq set, Li et al. 2023, doi:10.1038/s41467-023-39022-2, as distributed in FLAb.

The target is the same throughout: PDVDLGDISGINAS, from the HR2 region of SARS-CoV-2 spike.

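The starting antibody came from a phage panning campaign against this peptide. The variants were designed computationally from a first round of random CDR variants and then made and measured. Group labels follow the data file (En: ensemble of fine-tuned language models; GP: Gaussian process model; HC: hill climbing; Gen: genetic algorithm; Gibbs: Gibbs sampling; a sequence that several methods proposed may carry one label only). AlphaSeq pools MATa yeast showing the antibodies with MATalpha yeast showing the peptide. Mating (16 h, 30 °C) was followed by selection of diploids and sequencing of their barcodes. The ratio of observed to expected reads was calibrated, replicate by replicate, on BCL2-family standards whose Kd was known from biolayer interferometry. The assay was run in six technical replicates.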

Ab-14 is the parent antibody, in scFv form: VH, then three GGGGS repeats, then VL. The heavy chain is unchanged in all variants.
VH: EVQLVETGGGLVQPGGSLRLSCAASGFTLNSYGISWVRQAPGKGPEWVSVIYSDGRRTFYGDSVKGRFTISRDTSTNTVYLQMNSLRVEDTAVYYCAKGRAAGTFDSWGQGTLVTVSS
VL: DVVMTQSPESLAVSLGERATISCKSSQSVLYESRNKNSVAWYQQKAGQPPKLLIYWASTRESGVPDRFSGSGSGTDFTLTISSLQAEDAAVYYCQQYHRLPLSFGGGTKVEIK

The parent's light chain CDRs are KSSQSVLYESRNKNSVA, WASTRES, QQYHRLPLS; each variant's own CDRs replace them letter for letter. Variants here have more than six changes. The read-out is the apparent dissociation constant on a log10 scale (nM): the lower, the stronger. Where no diploid with the target was found in that replicate, the entry reads "nd": below detection, most likely a poor binder, though not proof of it. The range of this assay differs from that of the first round, and the authors advise against merging the two.

Variant KLGASMYVSTEAKRAIA, QDEMRVH, QQYDRLPLM [En_Gibbs] gave nd, 1.89, 2.49, 1.67, 2.72, 2.68 (controls 0 of 18).
Variant KLQGSELGESRNKNSVA, SADTRLE, QQYHRLPLS [GP_Gibbs] gave 0.02, 0.05, -0.27, -0.46, -0.11, 0.15 (controls 0 of 18).
Variant QLLMATMSGQYNRNSVA, HAQTRND, QSYHRLPLS [En_HC] gave 2.08, nd, 1.81, 1.43, 0.73, 1.53 (controls 0 of 18).
Variant KLQWQQYGENQQEAAIA, NETTVAQ, QQYAKLPLT [En_Gibbs] gave 2.17, 0.62, 0.69, 1.09, 0.89, 1.30 (controls 1 of 18).
Variant IVSQLMMWGLHAKNSIA, EAQTRLN, QQYERLPLF [En_Gen] gave nd, nd, nd, nd, nd, nd (controls 0 of 18).
Variant KLQMQMLYESRMKNSVA, DASQRES, QQYHRLPLS [GP_Gibbs] gave 0.08, 0.34, 0.22, 0.22, 0.49, 0.42 (controls 2 of 18).
Variant KSPGSNLYESRNWNSVA, KASTRLQ, QQYHRLPLS [GP_Gibbs] gave 2.54, 1.81, 1.53, 1.65, 1.64, 2.07 (controls 0 of 18).
Variant ALSQKGFQQSGMRDSIA, HSDQRLA, QQYYHLPLA [En_Gibbs] gave 1.05, 0.49, 1.26, 1.25, 1.39, 0.84 (controls 1 of 18).
Variant MISDLTMYGSRNKNSVA, DSSTRGN, QQYHRLPLS [En_HC] gave -0.04, -0.17, -0.17, -0.33, -0.23, -0.11 (controls 1 of 18).
Variant KLMQEDEYQSRNPNSVA, HASERES, QQYHRLPLS [GP_Gibbs] gave -0.94, -0.96, -1.32, -1.23, -0.82, -0.76 (controls 0 of 18).
Variant KLVQSELYEDRNTNSVA, NASQRCS, QQYHRLPLS [GP_Gibbs] gave 0.26, 0.32, 0.11, -0.05, 0.18, 0.34 (controls 2 of 18).
Variant KIGDTLNQLMHKKNNVA, DLVMREN, QQYFRLPLS [En_Gen] gave 0.41, 0.17, 0.24, 0.06, 0.18, 0.48 (controls 0 of 18).
Variant KLQGSVGYEERNKNSVA, GASQRES, QQYHRLPLS [GP_Gibbs] gave 0.18, 0.07, -0.07, -0.18, 0.04, 0.35 (controls 1 of 18).
Variant LLQQSEGYESRNKNSVA, DASTRES, QAYHRLPLS [GP_Gibbs] gave 0.78, 0.02, 0.26, 0.05, 0.34, 0.36 (controls 2 of 18).
Variant MVTQMAMTGMKNKRSVA, NAEMRED, QQYHRLPLI [En_Gen] gave 0.25, 0.64, 0.35, 0.30, 0.36, 0.28 (controls 1 of 18).
Variant KLSEFEQGNTQHANAVA, EMREVQH, QHYHRLPLM [En_Gibbs] gave 1.61, nd, 2.36, 1.24, nd, 1.81 (controls 0 of 18).
Variant KISQMVNFEGKNKNSVA, QMSTRES, QQYDRLPLS [En_HC] gave 1.07, 0.58, 1.12, 1.08, 0.83, 1.39 (controls 0 of 18).
Variant ALASTGYQVDSQMQNIA, DGMERES, QQYNRLPLT [En_Gibbs] gave 0.55, 0.88, 0.66, 0.76, 0.73, 0.63 (controls 1 of 18).
Variant MLTISGDETHEKAFSIA, NVTNKEY, QQYARLPLT [En_Gibbs] gave 1.21, 1.04, 0.93, 0.97, 1.06, 1.05 (controls 0 of 18).
Variant MIKSENIEVGNYQNSIA, DGASTMA, QQYYRLPLA [En_Gibbs] gave 0.17, -0.14, 0.04, -0.35, -0.18, 0.13 (controls 0 of 18).
Variant KLNQDPVLKTNINNNVA, EHSEVFQ, QQYAHLPLQ [En_Gibbs] gave 1.47, 1.75, 1.70, 1.84, 2.16, 1.95 (controls 3 of 18).
Variant KLRQVTEYESFDKNSVA, QTETREN, QDYDRLPLS [En_HC] gave nd, 0.61, 0.99, 0.16, 0.84, 1.19 (controls 1 of 18).
Variant MISQSFLIGMKAQNSVA, QTSTREE, QQYDRLPLS [En_HC] gave 0.34, 0.23, 0.37, 0.38, 0.40, 0.69 (controls 1 of 18).
Variant MIEIIHDGYMEMRSAVA, DTSLVRM, QQYYRLPLM [En_Gibbs] gave nd, nd, nd, nd, nd, nd (controls 0 of 18).
Variant NLGFVDDNDNQMMMSIA, DENTVGE, QQYNRLPLA [En_Gibbs] gave nd, nd, nd, 2.46, 2.26, nd (controls 0 of 18).
Variant KLRQVTGYESYAKNSVA, QTSTRVS, QDYHRLPLS [En_HC] gave 1.67, 0.86, 0.96, 1.16, 1.00, 1.28 (controls 3 of 18).
Variant HLGGLMTWESKAKNSVA, QQNTRAE, QQYHRLPLS [En_HC] gave 0.51, 0.74, 0.98, 0.50, 0.79, 0.39 (controls 0 of 18).
Variant TISQSAQQETHNKNSVA, DLNVRGS, QQYDRLPLS [En_HC] gave 0.48, 0.80, 0.45, 0.57, 0.90, 0.72 (controls 0 of 18).
Variant KLSQVTHSVSRNKNSIA, EMVTREV, QQYDRLPLS [En_HC] gave 0.72, 0.42, 0.75, 1.26, 1.02, 0.22 (controls 1 of 18).
Variant MISQLYNMGSFAINSVA, QAQTRNE, QQYDRLPLT [En_Gen] gave nd, nd, nd, 2.71, nd, nd (controls 0 of 18).
Variant KLSGIMRLESKVSNSIA, EMTTRGS, QQYDRLPLS [En_Gen] gave 1.96, 1.61, 1.23, 1.07, 1.58, 1.72 (controls 0 of 18).
Variant IIDQIMYHGNKRANSIA, QASERVN, QQYHHLPLF [En_Gen] gave 1.15, 1.24, 0.56, 1.04, 0.48, 0.79 (controls 1 of 18).
Variant HLQEQSFVGQKDKWSVA, NTECKYN, QQYAQLPLM [En_Gibbs] gave 1.20, 1.14, 1.01, 1.17, 1.14, 0.42 (controls 1 of 18).
Variant KLRISTGYESRNKDSIA, DNSTRGR, QQYHRLPLS [En_HC] gave 1.11, 1.84, 1.54, 1.60, 1.66, 2.17 (controls 0 of 18).
Variant TISQLHNMGTFAINSVA, QASIRNA, QQYDRLPLQ [En_Gen] gave 0.75, 0.57, 0.94, 0.68, 0.74, 1.30 (controls 1 of 18).
Variant TIGQTLMSGVRNRSNVA, EVSQRLN, QQYDRLPLI [En_Gen] gave 1.54, 1.84, 1.49, 1.65, 1.82, 1.69 (controls 0 of 18).
Variant TISTSMRYEQSLKNAIA, NAQTRES, QQYHRLPIS [En_HC] gave 1.00, 1.01, 1.12, 0.95, 0.91, 1.05 (controls 3 of 18).
Variant QFHSTMAGDQRNVHSIA, NATWAVP, QQYFRLPLS [En_Gibbs] gave 0.44, 0.35, -0.09, 0.56, 0.09, 1.02 (controls 0 of 18).

The authors averaged sequences with at least three values out of six and counted those with two or fewer as poor binders. Three control strains display no target. For all light chain designs, 4% of the pairings with them gave a signal, with a median of 2.64 and one signal in twenty below 1.59, so weak values seen in few replicates may be background. For each scFv, signals with the empty controls are counted beside the result.